Biological target: the molecule itself
Assay: SEC + other: glycerol gradient sedimentation; KIF1C-GFP alone; Superdex 200 in 35 mM sodium phosphate pH 7.5, 1.5 mM MgCl2 at 150 and 500 mM NaCl; 10-40% glycerol gradients at 4°C; apparent mass from Stokes radius and sedimentation coefficient

B1: KIF1C-GFP (recombinant full-length human KIF1C, 6His-KIF1C-GFP) (natural protein, UniProt O43896 1-1103, looked up)
chain: MAGASVKVAVRVRPFNARETSQDAKCVVSMQGNTTSIINPKQSKDAPKSFTFDYSYWSHTSTEDPQFASQQQVYRDIGEEMLLHAFEGYNVCIFAYGQTGAGKSYTMMGRQEPGQQGIVPQLCEDLFSRVSENQSAQLSYSVEVSYMEIYCERVRDLLNPKSRGSLRVREHPILGPYVQDLSKLAVTSYADIADLMDCGNKARTVAATNMNETSSRSHAVFTIVFTQRCHDQLTGLDSEKVSKISLVDLAGSERADSSGARGMRLKEGANINKSLTTLGKVISALADMQSKKRKSDFIPYRDSVLTWLLKENLGGNSRTAMIAALSPADINYEETLSTLRYADRTKQIRCNAIINEDPNARLIRELQEEVARLRELLMAQGLSASALEGLKTEEGSVRGALPAVSSPPAPVSPSSPTTHNGELEPSFSPNTESQIGPEEAMERLQETEKIIAELNETWEEKLRKTEALRMEREALLAEMGVAVREDGGTVGVFSPKKTPHLVNLNEDPLMSECLLYHIKDGVTRVGQVDMDIKLTGQFIREQHCLFRSIPQPDGEVVVTLEPCEGAETYVNGKLVTEPLVLKSGNRIVMGKNHVFRFNHPEQARLERERGVPPPPGPPSEPVDWNFAQKELLEQQGIDIKLEMEKRLQDLENQYRKEKEEADLLLEQQRLYADSDSGDDSDKRSCEESWRLISSLREQLPPTTVQTIVKRCGLPSSGKRRAPRRVYQIPQRRRLQGKDPRWATMADLKMQAVKEICYEVALADFRHGRAEIEALAALKMRELCRTYGKPDGPGDAWRAVARDVWDTVGEEEGGGAGSGGGSEEGARGAEVEDLRAHIDKLTGILQEVKLQNSSKDRELQALRDRMLRMERVIPLAQDHEDENEEGGEVPWAPPEGSEAAEEAAPSDRMPSARPPSPPLSSWERVSRLMEEDPAFRRGRLRWLKQEQLRLQGLQGSGGRGGGLRRPPARFVPPHDCKLRFPFKSNPQHRESWPGMGSGEAPTPLQPPEEVTPHPATPARRPPSPRRSHHPRRNSLDGGGRSRGAGSAQPEPQHFQPKKHNSYPQPPQPYPAQRPPGPRYPPYTTPPRMRRQRSAPDLKESGAAV
notes: KIF1C (kinesin-3), human, full length; cDNA from the RNAi-protected plasmid pKIF1C^RIP2GFP; No tag cleavage is described; source: SF9 insect cells (baculovirus), purified (SP Sepharose, Ni-NTA); not shown: GFP, C-terminal, kept
Q: Which “stoichiometry N” value does the source give for B1 here?
A: The value was 2.

Reference: publication doi:10.1101/488049 (bioRxiv, 2018)
